Assay results as given in patent publication US20090253669A1, “Substituted Sulfonamide Compounds” (GRUENENTHAL GmbH, priority 2008, published 2009).

Amino acid sequences for entries named in this document (tags omitted).
UniProt P35372, whole entry, looked up: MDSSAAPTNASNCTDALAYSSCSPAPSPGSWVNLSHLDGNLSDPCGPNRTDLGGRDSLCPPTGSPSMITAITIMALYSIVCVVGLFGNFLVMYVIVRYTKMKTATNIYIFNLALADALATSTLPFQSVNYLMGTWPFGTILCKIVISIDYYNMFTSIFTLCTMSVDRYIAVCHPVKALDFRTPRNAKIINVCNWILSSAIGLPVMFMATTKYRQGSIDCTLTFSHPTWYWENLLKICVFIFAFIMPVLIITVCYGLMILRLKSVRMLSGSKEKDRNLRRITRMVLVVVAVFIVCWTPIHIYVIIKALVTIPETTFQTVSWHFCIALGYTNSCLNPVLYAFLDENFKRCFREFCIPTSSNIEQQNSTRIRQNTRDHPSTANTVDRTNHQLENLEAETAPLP

target: human μ opiate receptor (Homo sapiens, UniProt P35372); experiment: [3H]-naloxone displacement, SPA, membranes of CHO-K1 cells; conditions: 1 μM test substance; inhibition of specific binding of 1 nmol/l [3H]-naloxone

Compared with `Cc1cc(S(=O)(=O)N2CCCCC2CCC(=O)N(C)CCC2CCC(CCc3ccccc3)(N3CCCC3)CC2)c(C)cc1Cl` (stereo not drawn) [Compound 131, 3-(1-(4-chloro-2,5-dimethylphenylsulfonyl)piperidin-2-yl)-N-methyl-N-(2-(4-phenethyl-4-(pyrrolidin-1-yl)cyclohexyl)ethyl)propanamide], `Cc1cc(S(=O)(=O)N2CCCCC2CCC(=O)N(C)CC2CCC(CCc3ccccc3)(N3CCCC3)CC2)c(C)cc1Cl` (stereo not drawn) [Compound 141, 3-(1-(4-chloro-2,5-dimethylphenylsulfonyl)piperidin-2-yl)-N-methyl-N-((4-phenethyl-4-(pyrrolidin-1-yl)cyclohexyl)methyl)propanamide] is lower in “μ opioid receptor [1 μM] % inhibition” value: 33% for the first, 23% for the second.

Compared with `COc1cc(C)c(S(=O)(=O)N(C)CCOCC(=O)N(C)CCCC2CCC(Cc3ccccc3)(N3CCCC3)CC2)c(C)c1` (stereo not drawn) [Compound 85, N-(3-(4-benzyl-4-(pyrrolidin-1-yl)cyclohexyl)propyl)-2-(2-(4-methoxy-N,2,6-trimethylphenylsulfonamido)ethoxy)-N-methylacetamide], `COc1cc(C)c(S(=O)(=O)N(C)CCOCC(=O)N(C)CC2CCC(Cc3ccccc3)(N3CCCC3)CC2)c(C)c1` (stereo not drawn) [Compound 45, N-((4-benzyl-4-(pyrrolidin-1-yl)cyclohexyl)methyl)-2-(2-(4-methoxy-N,2,6-trimethylphenylsulfonamido)ethoxy)-N-methylacetamide] is higher in “μ opioid receptor [1 μM] % inhibition” value: 14% for the first, 15% for the second.

Going from `COc1cc(C)c(S(=O)(=O)N(C)CCOCC(=O)N(C)CC2CCC(Cc3ccccc3)(N3CCN(C)CC3)CC2)c(C)c1` (stereo not drawn) [Compound 183, N-((4-benzyl-4-(4-methylpiperazin-1-yl)cyclohexyl)methyl)-2-(2-(4-methoxy-N,2,6-trimethylphenylsulfonamido)ethoxy)-N-methylacetamide] to `COc1cc(C)c(S(=O)(=O)N(C)CCOCC(=O)NCC2CCC(Cc3ccccc3)(N3CCOCC3)CC2)c(C)c1` (stereo not drawn) [Compound 188, N-((4-benzyl-4-morpholinocyclohexyl)methyl)-2-(2-(4-methoxy-N,2,6-trimethylphenylsulfonamido)ethoxy)acetamide], the “μ opioid receptor [1 μM] % inhibition” value rises from 5% to 13%.

First: COc1cc(C)c(S(=O)(=O)N2CCCCC2COCC(=O)N(C)CCC2CCC(CCc3ccccc3)(N3CCCC3)CC2)c(C)c1 (stereo not drawn) [Compound 46, 2-((1-(4-methoxy-2,6-dimethylphenylsulfonyl)piperidin-2-yl)methoxy)-N-methyl-N-(2-(4-phenethyl-4-(pyrrolidin-1-yl)cyclohexyl)ethyl)acetamide]
Second: COc1cc(C)c(S(=O)(=O)N2CCCC[C@H]2COCC(=O)N(C)CCC2CCC(c3ccccc3)(N3CCCC3)CC2)c(C)c1 (stereo partly drawn) [Compound 200, (S)-2-((1-(4-methoxy-2,6-dimethylphenylsulfonyl)piperidin-2-yl)methoxy)-N-methyl-N-(2-(4-phenyl-4-(pyrrolidin-1-yl)cyclohexyl)ethyl)acetamide]
The “μ opioid receptor [1 μM] % inhibition” value of the first is lower: 32% for the first, 75% for the second.

Going from `COc1cc(C)c(S(=O)(=O)N(C)CCOCC(=O)NC2CCC(Cc3ccccc3C)(N(C)C)CC2)c(C)c1` (stereo not drawn) [Compound 10, N-(4-(dimethylamino)-4-(2-methylbenzyl)cyclohexyl)-2-(2-(4-methoxy-N,2,6-trimethylphenylsulfonamido)ethoxy)acetamide] to `COc1cc(C)c(S(=O)(=O)N(C)CCOCC(=O)NC2CCC(CCc3ccccc3)(N(C)C)CC2)c(C)c1` (stereo not drawn) [Compound 7, N-(4-(dimethylamino)-4-phenethylcyclohexyl)-2-(2-(4-methoxy-N,2,6-trimethylphenylsulfonamido)ethoxy)acetamide], the “μ opioid receptor [1 μM] % inhibition” value rises from 50% to 55%.

Compared with `Cc1cc(S(=O)(=O)N2CCCCC2CCC(=O)N2CCC(Cc3ccccc3)(N(C)C)CC2)c(C)cc1Cl` (stereo not drawn) [Compound 80, 1-(4-benzyl-4-(dimethylamino)piperidin-1-yl)-3-(1-(4-chloro-2,5-dimethylphenylsulfonyl)piperidin-2-yl)propan-1-one], `Cc1cc(S(=O)(=O)N2CCCCC2CCC(=O)N2CCC(Cc3ccccc3)(N3CCN(C)CC3)CC2)c(C)cc1Cl` (stereo not drawn) [Compound 130, 1-(4-benzyl-4-(4-methylpiperazin-1-yl)piperidin-1-yl)-3-(1-(4-chloro-2,5-dimethylphenylsulfonyl)piperidin-2-yl)propan-1-one] is lower in “μ opioid receptor [1 μM] % inhibition” value: 61% for the first, 7% for the second.

First: O=C(COC1CCCN(S(=O)(=O)c2c(Cl)cc(Cl)cc2Cl)C1)NC1CCC(c2ccccc2)(N2CCCC2)CC1 (stereo not drawn) [Compound 194, N-(4-phenyl-4-(pyrrolidin-1-yl)cyclohexyl)-2-(1-(2,4,6-trichlorophenylsulfonyl)piperidin-3-yloxy)acetamide]
Second: O=C(COCC1CCCN1S(=O)(=O)c1c(Cl)cc(Cl)cc1Cl)NC1CCC(c2ccccc2)(N2CCCC2)CC1 (stereo not drawn) [Compound 146, N-(4-phenyl-4-(pyrrolidin-1-yl)cyclohexyl)-2-((1-(2,4,6-trichlorophenylsulfonyl)pyrrolidin-2-yl)methoxy)acetamide]
The “μ opioid receptor [1 μM] % inhibition” value of the first is lower: 95% for the first, 101% for the second.

Going from `CN(C)C1(c2ccccc2)CCC(NC(=O)COC2CCN(S(=O)(=O)c3c(Cl)cc(Cl)cc3Cl)C2)CC1` (stereo not drawn) [Compound 198, N-(4-(dimethylamino)-4-phenylcyclohexyl)-2-(1-(2,4,6-trichlorophenylsulfonyl)pyrrolidin-3-yloxy)acetamide] to `O=C(COCC1CCCN1S(=O)(=O)c1c(Cl)cc(Cl)cc1Cl)NC1CCC(Cc2ccccc2)(N2CCCC2)CC1` (stereo not drawn) [Compound 156, N-(4-benzyl-4-(pyrrolidin-1-yl)cyclohexyl)-2-((1-(2,4,6-trichlorophenylsulfonyl)pyrrolidin-2-yl)methoxy)acetamide], the “μ opioid receptor [1 μM] % inhibition” value falls from 100% to 91%.

Going from `COc1cc(C)c(S(=O)(=O)N(C)CCOCC(=O)NC2CCC(Cc3ccccc3)(N3CCOCC3)CC2)c(C)c1` (stereo not drawn) [Compound 171, N-(4-benzyl-4-morpholinocyclohexyl)-2-(2-(4-methoxy-N,2,6-trimethylphenylsulfonamido)ethoxy)acetamide] to `COc1cc(C)c(S(=O)(=O)N(C)CCOCC(=O)N(C)CCC2CCC(c3ccccc3)(N(C)C)CC2)c(C)c1` (stereo not drawn) [Compound 72, N-(2-(4-(dimethylamino)-4-phenylcyclohexyl)ethyl)-2-(2-(4-methoxy-N,2,6-trimethylphenylsulfonamido)ethoxy)-N-methylacetamide], the “μ opioid receptor [1 μM] % inhibition” value rises from 29% to 96%.

Compared with `Cc1cc(S(=O)(=O)N2CCCCC2CCC(=O)N(C)CC2CCC(Cc3ccccc3)(N3CCCC3)CC2)c(C)cc1Cl` (stereo not drawn) [Compound 129, N-((4-benzyl-4-(pyrrolidin-1-yl)cyclohexyl)methyl)-3-(1-(4-chloro-2,5-dimethylphenylsulfonyl)piperidin-2-yl)-N-methylpropanamide], `CN(CC1CCC(Cc2ccccc2)(N2CCCC2)CC1)C(=O)CC1CCCCN1S(=O)(=O)c1cccc(C(F)(F)F)c1` (stereo not drawn) [Compound 94, N-((4-benzyl-4-(pyrrolidin-1-yl)cyclohexyl)methyl)-N-methyl-2-(1-(3-(trifluoromethyl)phenylsulfonyl)piperidin-2-yl)acetamide] is lower in “μ opioid receptor [1 μM] % inhibition” value: 9% for the first, 5% for the second.

First: COc1cc(C)c(S(=O)(=O)N2CCCCC2COCC(=O)N2CCC(CCc3ccccc3)(N(C)C)CC2)c(C)c1 (stereo not drawn) [Compound 50, 1-(4-(dimethylamino)-4-phenethylpiperidin-1-yl)-2-((1-(4-methoxy-2,6-dimethylphenylsulfonyl)piperidin-2-yl)methoxy)ethanone]
Second: COc1cc(C)c(S(=O)(=O)N2CCCCC2COCC(=O)N(C)CCCC2CCC(c3ccccc3)(N3CCCC3)CC2)c(C)c1 (stereo not drawn) [Compound 32, 2-((1-(4-methoxy-2,6-dimethylphenylsulfonyl)piperidin-2-yl)methoxy)-N-methyl-N-(3-(4-phenyl-4-(pyrrolidin-1-yl)cyclohexyl)propyl)acetamide]
The “μ opioid receptor [1 μM] % inhibition” value of the first is lower: 20% for the first, 66% for the second.

First: CN(CCC1CCC(c2ccccc2)(N2CCCC2)CC1)C(=O)CC1CCCCN1S(=O)(=O)c1cccc(C(F)(F)F)c1 (stereo not drawn) [Compound 106, N-methyl-N-(2-(4-phenyl-4-(pyrrolidin-1-yl)cyclohexyl)ethyl)-2-(1-(3-(trifluoromethyl)phenylsulfonyl)piperidin-2-yl)acetamide]
Second: CN(CCCC1CCC(c2ccccc2)(N2CCCC2)CC1)C(=O)CC1CCCCN1S(=O)(=O)c1cccc(C(F)(F)F)c1 (stereo not drawn) [Compound 37, N-methyl-N-(3-(4-phenyl-4-(pyrrolidin-1-yl)cyclohexyl)propyl)-2-(1-(3-(trifluoromethyl)phenylsulfonyl)piperidin-2-yl)acetamide]
The “μ opioid receptor [1 μM] % inhibition” value of the first is higher: 78% for the first, 62% for the second.

First: CN1CCN(C2(CCc3ccccc3)CCN(C(=O)CC(NS(=O)(=O)c3ccc4ccccc4c3)c3ccccc3)CC2)CC1 (stereo not drawn) [Compound 55, N-(3-(4-(4-methylpiperazin-1-yl)-4-phenethylpiperidin-1-yl)-3-oxo-1-phenylpropyl)naphthalene-2-sulfonamide]
Second: CN(CCC1CCC(Cc2ccccc2)(N2CCCC2)CC1)C(=O)CC(NS(=O)(=O)c1ccc2ccccc2c1)c1ccccc1 (stereo not drawn) [Compound 56, N-(2-(4-benzyl-4-(pyrrolidin-1-yl)cyclohexyl)ethyl)-N-methyl-3-(naphthalene-2-sulfonamido)-3-phenylpropanamide]
The “μ opioid receptor [1 μM] % inhibition” value of the first is lower: 34% for the first, 49% for the second.

With `CN(CC1CCC(CCc2ccccc2)(N2CCCC2)CC1)C(=O)CC1CCCCN1S(=O)(=O)c1cccc(C(F)(F)F)c1` (stereo not drawn) [Compound 38, N-methyl-N-((4-phenethyl-4-(pyrrolidin-1-yl)cyclohexyl)methyl)-2-(1-(3-(trifluoromethyl)phenylsulfonyl)piperidin-2-yl)acetamide] the “μ opioid receptor [1 μM] % inhibition” value was 13%.
